In this experiment the target is Recombinant human A97S‐TTR (transthyretin, A97S variant) (human) (UniProt P02766). Kind of experiment: SDS-PAGE; 15% SDS–PAGE of the purified protein after Ni affinity and gel filtration. In general terms: SEC sorts molecules by how far they enter the pores of the column.

Regarding “Recombinant human A97S‐TTR (transthyretin, A97S variant) (from UniProt P02766 21-144) (natural protein)”, the stoichiometry N was found to be 4.

The stoichiometry N is the number of molecules, sites or subunits per partner or assembly.

The values are drawn from article PMC11537138.
